## Yeast mating assay B: variants of the scFv Ab-14

Target peptide (SARS-CoV-2 spike, HR2 region): PDVDLGDISGINAS

Parent scFv Ab-14: VH joined to VL by the linker GGGGSGGGGSGGGGS. Changes lie in the light chain CDRs alone.
VH: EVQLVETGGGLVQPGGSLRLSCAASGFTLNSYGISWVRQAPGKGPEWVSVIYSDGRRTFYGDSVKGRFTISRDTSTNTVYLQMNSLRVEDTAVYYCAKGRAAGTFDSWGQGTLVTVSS
VL: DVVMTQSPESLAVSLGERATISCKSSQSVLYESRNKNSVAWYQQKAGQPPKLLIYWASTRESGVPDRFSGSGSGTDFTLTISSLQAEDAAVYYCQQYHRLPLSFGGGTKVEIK

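The starting antibody came from a phage panning campaign against this peptide. The variants were designed computationally from a first round of random CDR variants and then made and measured. Their group label is 14L_En_Gibbs (En: ensemble of fine-tuned language models; Gibbs: Gibbs sampling). AlphaSeq pools MATa yeast showing the antibodies with MATalpha yeast showing the peptide. The frequency of each diploid, read from paired DNA barcodes, reflects how well the two displayed proteins bind. Scores were corrected for input abundance and mapped to Kd with protein pairs of known affinity run in the same pool. There are six technical replicates.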

Each variant is given by its three light chain CDRs, as the data file delimits them; those of the parent are KSSQSVLYESRNKNSVA, WASTRES, QQYHRLPLS. Values are log10 of the apparent Kd in nM; lower means stronger binding. An entry "ND" has no value in the source: the pair was not observed among the diploids in that replicate. This suggests poor binding but is not conclusive.

CDR-L1	CDR-L2	CDR-L3	replicates, log10 nM	signal with controls
KLWAYFQGLEQKMQNVA	DGSYRST	QQYDRLPLS	ND / 1.77 / 0.60 / 0.91 / 1.25 / 1.45	0 of 18
QFSITNNQGHAMEHNIA	EGTYAEE	QQYARLPLQ	1.55 / 1.31 / 0.50 / 0.95 / 1.67 / 1.67	0 of 18
HMSDSIEKMASHARNIA	DETTLAM	QQYYRLPLS	-0.13 / 0.01 / 0.00 / -0.14 / 0.07 / -0.13	0 of 18
HVSNLLTDEMYREYNVA	ETSHVEE	QQYERLPLI	0.93 / 0.55 / 2.17 / 0.84 / 1.05 / 1.39	0 of 18
KLQNFSQEDNKMWNNIA	DMTMVHT	QQYMRLPLE	0.91 / 0.72 / 0.83 / 0.70 / 0.94 / 1.06	1 of 18 (2.27)
KLMEQFGHSMDHKNNIA	HVDMLAQ	QQYMHLPLI	1.86 / 1.19 / 1.43 / 1.68 / 0.96 / 1.01	1 of 18 (2.48)
QTTAFYEHLKDQQQAMA	NATMRDQ	QQYERLPLS	ND / ND / ND / ND / ND / ND	0 of 18
SLQSEALGGNQKTSSIA	GESVAMP	QQYERLPLD	2.18 / 1.43 / 1.07 / ND / ND / 1.39	0 of 18
KVTMYELEMEFNRSAVA	AAEVRAP	QQYWRLPLE	3.15 / ND / ND / 1.93 / 2.50 / ND	0 of 18
HMKDEPGLGPQTYHSVA	HASILEP	QQYYRLPLM	0.52 / 0.48 / 0.30 / 0.21 / 0.54 / 0.62	1 of 18 (2.96)
SLQSEQIGGNQQTSSIA	GESVAMP	QHYERLPLS	0.88 / 0.52 / 0.40 / 0.50 / 0.72 / 0.66	1 of 18 (2.58)
KLNLREEWGTGQWQNIA	EREIAWE	QQYQSLPLS	0.86 / 0.82 / 0.62 / 0.34 / 0.86 / 1.08	1 of 18 (2.96)
QIFQKLQEHGNGIANVA	QGAELRN	QQYFVLPLT	0.96 / 1.55 / 1.26 / 1.30 / 1.62 / 2.00	1 of 18 (1.95)
KLKYQADQYGMQWNNVA	QADIRAP	QQYNKLPLN	0.80 / 0.76 / 0.72 / 0.59 / 0.58 / 0.62	1 of 18 (3.22)
KITTSLYSWGIDKGAVA	EENITVR	QQYFRLPFS	0.68 / 1.10 / 0.69 / 1.11 / 0.94 / 1.01	2 of 18 (2.77)
SLFFHDDQLQEESNNIA	HASLRSV	QQYMHLPLV	1.21 / 0.92 / 0.66 / 0.60 / 0.46 / 0.70	2 of 18 (2.68)
VLMGWGADSIQHANSVA	DRDLVDM	QQYAHLPLS	ND / ND / ND / ND / ND / ND	0 of 18
LIKGMVEGQLYKQNAIA	NSEERDR	QQYNHLPLS	0.83 / 0.74 / 0.75 / 0.77 / 0.78 / 1.06	2 of 18 (2.21)
KLRTQVGHQMDHKNSIA	EVDMVAQ	QQYMHLPLI	0.86 / 0.79 / 1.24 / 0.70 / 0.60 / 1.30	0 of 18
KLQWQQYGENQQEAAIA	NETTVAQ	QQYFKLPLT	1.12 / 0.71 / 1.04 / 0.87 / 0.61 / 1.21	1 of 18 (1.65)
NLGQKMSHEYEQRNSIA	DMTVREY	QQYSRIPLI	0.77 / 1.90 / 0.75 / 1.36 / 1.67 / 1.71	2 of 18 (1.56)
QLEFERGQEWKNGAAIA	GNTESLH	QQYAMLPLS	2.83 / ND / 2.57 / 3.16 / 3.42 / 2.86	3 of 18 (2.84)
NVRLNEGEIAMHMYAIA	GVDLRAD	QQYSRLPLF	1.01 / 0.58 / 0.73 / 0.54 / 0.53 / 0.92	0 of 18
KLRREADGWNRNEWNIA	DADYRGA	QQYFHLPLC	ND / 1.81 / 1.66 / 1.83 / 1.90 / 2.12	0 of 18
HVSQTLTDEMYREYNVA	ETNHVEE	QDYFRLPLI	ND / ND / ND / ND / ND / ND	0 of 18
SVHFQGTTGEQNWESIA	ENSIRVE	QQYSHLPLL	1.05 / 1.87 / 1.88 / 1.74 / 1.49 / 1.15	0 of 18
TIFQERSYLDGDERNIA	DARTRND	QQYNRLPLV	0.68 / 0.43 / 0.28 / 0.46 / 0.20 / 1.52	0 of 18
ALSDWEWAGEENINAVA	DRSALEW	QQYQRLPLS	2.48 / 2.35 / 1.72 / 1.02 / 2.45 / 2.14	0 of 18
VFQQQWDGHTLTNSSVA	NVDERME	QQYNRLPLM	2.58 / 1.39 / 3.10 / 3.79 / 2.09 / 2.64	1 of 18 (2.25)
KLSLSMSYSHEGRRHIA	NGSNRCI	QQYHRLPLI	1.01 / 0.58 / 1.60 / 1.52 / 0.78 / 1.52	1 of 18 (2.85)
HFSIGMNQGSSMEHNIA	EGTYAEE	QQYARLPLQ	1.24 / ND / ND / ND / ND / ND	0 of 18
NMRLGEGEIAQHGYNIA	GVDLRAA	QQYARLPLH	0.95 / 0.92 / 0.84 / 0.93 / 1.20 / 1.12	4 of 18 (3.10)
KLDMNELGQSQNSSHVA	GSAQKCQ	QQYSRLPLS	1.57 / 1.46 / 1.10 / 1.33 / 1.72 / 1.85	1 of 18 (2.10)
SLSESEREGFSHEQNIA	DGTEHMR	QQYFQLPLL	1.54 / 1.05 / 1.36 / 0.72 / 1.13 / 1.76	1 of 18 (1.68)
HMKDEPGFGPQTYSSVA	HAEIREP	QQYYRLPLM	0.55 / 0.22 / 0.55 / 0.32 / 0.14 / 0.80	0 of 18
VLSDTIENMASEADNIA	DTTETSY	QQYYRLPLS	-0.55 / -0.54 / -1.14 / -0.97 / -1.38 / 0.21	0 of 18
KLGAWMYWQTEAKYAIA	QDEMRVH	QQYDRLPLT	1.48 / ND / ND / 1.98 / 2.18 / ND	0 of 18
NMQMQQDRMQDAKQNVA	GVDMREE	QQYFRLPFL	-0.14 / -0.06 / -0.41 / -0.35 / -0.35 / 0.14	0 of 18
ALKQTGSMMHAARKNVA	HADTRAA	QQYATLPLT	0.80 / 1.32 / 1.56 / 1.34 / 1.82 / 1.50	2 of 18 (2.99)
KLTSHEWHGTADNSAMA	NAQVSHD	QQYSRLPLA	0.79 / 0.67 / 0.62 / 0.49 / 0.92 / 1.00	0 of 18
FLHGNIEYGNGNWSAIA	ENTIRVD	QYYQHLPLA	ND / ND / 2.57 / ND / ND / ND	2 of 18 (3.45)
SLELFEYQIMKDLNNIA	NTNTRVN	QQYMRLPFM	0.05 / 0.53 / 0.51 / 0.31 / 0.10 / 0.24	0 of 18
HLGIQTQGEEVSTQAVA	QESTRAK	QQYFRLPLI	0.78 / 0.58 / 0.41 / 0.34 / 0.45 / 0.72	0 of 18
YLSINEVSDSYNVSRVA	EAETSVA	QQYHHLPLI	1.71 / 1.64 / 1.30 / 1.31 / 1.39 / 1.51	1 of 18 (2.73)
KVQLGLERYNGDYSSVA	NETQKGD	QQYFQLPLG	1.37 / 1.16 / 1.32 / 1.20 / 2.24 / 1.78	0 of 18
HMSESEHGHNAGVGNMA	NATESTE	QQYMHLPLS	0.51 / 0.88 / 0.50 / 0.53 / 0.32 / 0.52	1 of 18 (2.45)
KIDGQRSYQGGRERAIA	DANIRQR	QQYNRLPLV	0.68 / 0.66 / 0.48 / 0.51 / 0.47 / 0.82	1 of 18 (2.48)
NLQYLEENSLIGASAIA	DVSIAVM	QQYHRLPLA	ND / ND / ND / ND / ND / ND	0 of 18
SMAYQQGGYNQQEKAIA	EAATRTQ	QQYFRLPLT	0.96 / 0.73 / 0.62 / 0.60 / 0.53 / 1.13	1 of 18 (2.64)
VLSATIENQYDEADNIA	DATETSK	QQYARLPLS	1.82 / 1.15 / 4.94 / 1.50 / 1.65 / 1.73	1 of 18 (2.44)
NLMSGMSELSVWSYNIA	SANIRGS	QQYFRLPLL	0.65 / 0.66 / 0.96 / 0.94 / 0.46 / 0.90	1 of 18 (2.43)
KLMMFMQEIGCMKNNIA	NLKEGAR	QQYAQLPLV	ND / ND / ND / ND / ND / ND	0 of 18

Excerpt, the first 8 entries:

CDR-L1	CDR-L2	CDR-L3	replicates, log10 nM	signal with controls
KLWAYFQGLEQKMQNVA	DGSYRST	QQYDRLPLS	ND / 1.77 / 0.60 / 0.91 / 1.25 / 1.45	0 of 18
QFSITNNQGHAMEHNIA	EGTYAEE	QQYARLPLQ	1.55 / 1.31 / 0.50 / 0.95 / 1.67 / 1.67	0 of 18
HMSDSIEKMASHARNIA	DETTLAM	QQYYRLPLS	-0.13 / 0.01 / 0.00 / -0.14 / 0.07 / -0.13	0 of 18
HVSNLLTDEMYREYNVA	ETSHVEE	QQYERLPLI	0.93 / 0.55 / 2.17 / 0.84 / 1.05 / 1.39	0 of 18
KLQNFSQEDNKMWNNIA	DMTMVHT	QQYMRLPLE	0.91 / 0.72 / 0.83 / 0.70 / 0.94 / 1.06	1 of 18 (2.27)
KLMEQFGHSMDHKNNIA	HVDMLAQ	QQYMHLPLI	1.86 / 1.19 / 1.43 / 1.68 / 0.96 / 1.01	1 of 18 (2.48)
QTTAFYEHLKDQQQAMA	NATMRDQ	QQYERLPLS	ND / ND / ND / ND / ND / ND	0 of 18
SLQSEALGGNQKTSSIA	GESVAMP	QQYERLPLD	2.18 / 1.43 / 1.07 / ND / ND / 1.39	0 of 18

Background: pairings of all light chain designs with three empty control strains gave a value in 4% of cases (median 2.64, 5th percentile 1.59). Values in that range, when seen in few replicates, are hard to tell from nonspecific mating. Also given: how often the same scFv was detected with the empty control strains, with their mean in brackets. In the paper, a design with two or fewer of six values counts as a poor binder. A sequence measured in both rounds can read differently, since the two assays cover different ranges.

Reference: Li et al. 2023, doi:10.1038/s41467-023-39022-2. File: FLAb, binding data.